Test results taken from patent US11008301B2, “Piperidinone formyl peptide 2 receptor agonists” (BRISTOL-MYERS SQUIBB COMPANY, priority 2017, dated 2021).

Chains of the proteins cited; added tags and fusions are not shown.
UniProt P25090, whole entry: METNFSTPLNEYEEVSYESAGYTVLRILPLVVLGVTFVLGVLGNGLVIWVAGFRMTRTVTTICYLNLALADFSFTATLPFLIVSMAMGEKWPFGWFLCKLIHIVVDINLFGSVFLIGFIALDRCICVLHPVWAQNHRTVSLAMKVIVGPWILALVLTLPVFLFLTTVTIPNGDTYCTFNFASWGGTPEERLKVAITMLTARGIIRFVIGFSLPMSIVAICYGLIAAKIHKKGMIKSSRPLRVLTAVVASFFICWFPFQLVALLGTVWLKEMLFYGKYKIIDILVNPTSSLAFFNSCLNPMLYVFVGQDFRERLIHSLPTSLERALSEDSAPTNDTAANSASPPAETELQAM

Target: human FPR2 (Homo sapiens (Human), UniProt P25090)
Assay: FPR2 cyclic adenosine monophosphate (cAMP) assay
Settings: read-out: hFPR2 agonist activity EC50 (hFPR2 Assay), CHO cells overexpressing human FPR2
Description: FPR2 and FPR1 Cyclic Adenosine Monophosphate (cAMP) Assays. A mixture of forskolin (5 μM final for FPR2 or 10 μM final for FPR1) and IBMX (200 μM final) were added to 384-well Proxiplates (Perkin-Elmer) pre-dotted with test compounds in DMSO (1% final) at final concentrations in the range of 1.7 nM to 100 μM. Chinese Hamster Ovary cells (CHO) overexpressing human FPR1 or human FPR2 receptors were cultured in F-12 (Ham's) medium supplemented with 10% qualified FBS, 250 μg/ml zeocin and 300 μg/ml hygromycin (Life Technologies). Reactions were initiated by adding 2,000 human FPR2 cells per well or 4,000 human FPR1 cells per well in Dulbecco's PBS (with calcium and magnesium) (Life Technologies) supplemented with 0.1% BSA (Perkin-Elmer). The reaction mixtures were incubated for 30 min at room temperature. The level of intracellular cAMP was determined using the HTRF HiRange cAMP assay reagent kit (Cisbio) according to manufacturer's instruction. […] After a 1-h room temperature incubation, time-resolved fluorescence intensity was measured using the Envision (Perkin-Elmer) at 400 nm excitation and dual emission at 590 nm and 665 nm. […] The potency and activity of a compound to inhibit cAMP production was then determined by fitting to a 4-parametric logistic equation from a plot of cAMP level versus compound concentrations.

| EC50 [nM] | Compound |
| --- | --- |
| ≤ 10 | CS(=O)(=O)C1CCN(c2ccc(N3CCC[C@@H](NC(=O)Nc4ccc(Cl)cc4F)C3=O)c(C3CC3)c2)C1 (some centres unmarked) |
| ≤ 10 | O=C(Nc1ccc(C(F)(F)F)cc1)N[C@@H]1CCCN(c2ccc(N3C4CCC3COC4)cc2)C1=O |
